Assay results published in PMC4809247 (Journal of medicinal chemistry, 2015).

Sequences of proteins named here, by UniProt entry; tags and fusion partners are left off. Residues count along the entry.
UniProt P31422, 23-879: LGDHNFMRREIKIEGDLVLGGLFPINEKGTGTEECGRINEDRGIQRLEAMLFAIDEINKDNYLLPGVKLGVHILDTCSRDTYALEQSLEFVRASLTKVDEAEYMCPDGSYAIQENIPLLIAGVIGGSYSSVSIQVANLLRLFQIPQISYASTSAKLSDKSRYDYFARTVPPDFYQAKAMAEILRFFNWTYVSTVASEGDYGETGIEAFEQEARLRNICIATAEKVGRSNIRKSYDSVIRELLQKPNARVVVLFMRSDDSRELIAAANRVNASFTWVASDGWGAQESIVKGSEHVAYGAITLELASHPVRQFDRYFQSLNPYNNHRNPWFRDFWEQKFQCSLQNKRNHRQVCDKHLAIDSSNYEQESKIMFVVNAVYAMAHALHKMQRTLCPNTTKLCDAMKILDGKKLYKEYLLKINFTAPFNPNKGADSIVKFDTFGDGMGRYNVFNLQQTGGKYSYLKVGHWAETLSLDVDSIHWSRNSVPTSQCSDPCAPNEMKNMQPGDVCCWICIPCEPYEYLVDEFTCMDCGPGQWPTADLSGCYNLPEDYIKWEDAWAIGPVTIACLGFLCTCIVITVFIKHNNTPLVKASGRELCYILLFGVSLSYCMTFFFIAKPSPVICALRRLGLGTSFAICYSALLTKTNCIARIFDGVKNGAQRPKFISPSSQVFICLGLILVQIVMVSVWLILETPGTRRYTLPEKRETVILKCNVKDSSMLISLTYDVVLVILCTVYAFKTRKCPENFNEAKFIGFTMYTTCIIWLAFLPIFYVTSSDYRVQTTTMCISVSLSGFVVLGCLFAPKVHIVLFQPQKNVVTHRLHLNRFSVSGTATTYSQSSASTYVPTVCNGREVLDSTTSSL
UniProt P31424, 21-1203: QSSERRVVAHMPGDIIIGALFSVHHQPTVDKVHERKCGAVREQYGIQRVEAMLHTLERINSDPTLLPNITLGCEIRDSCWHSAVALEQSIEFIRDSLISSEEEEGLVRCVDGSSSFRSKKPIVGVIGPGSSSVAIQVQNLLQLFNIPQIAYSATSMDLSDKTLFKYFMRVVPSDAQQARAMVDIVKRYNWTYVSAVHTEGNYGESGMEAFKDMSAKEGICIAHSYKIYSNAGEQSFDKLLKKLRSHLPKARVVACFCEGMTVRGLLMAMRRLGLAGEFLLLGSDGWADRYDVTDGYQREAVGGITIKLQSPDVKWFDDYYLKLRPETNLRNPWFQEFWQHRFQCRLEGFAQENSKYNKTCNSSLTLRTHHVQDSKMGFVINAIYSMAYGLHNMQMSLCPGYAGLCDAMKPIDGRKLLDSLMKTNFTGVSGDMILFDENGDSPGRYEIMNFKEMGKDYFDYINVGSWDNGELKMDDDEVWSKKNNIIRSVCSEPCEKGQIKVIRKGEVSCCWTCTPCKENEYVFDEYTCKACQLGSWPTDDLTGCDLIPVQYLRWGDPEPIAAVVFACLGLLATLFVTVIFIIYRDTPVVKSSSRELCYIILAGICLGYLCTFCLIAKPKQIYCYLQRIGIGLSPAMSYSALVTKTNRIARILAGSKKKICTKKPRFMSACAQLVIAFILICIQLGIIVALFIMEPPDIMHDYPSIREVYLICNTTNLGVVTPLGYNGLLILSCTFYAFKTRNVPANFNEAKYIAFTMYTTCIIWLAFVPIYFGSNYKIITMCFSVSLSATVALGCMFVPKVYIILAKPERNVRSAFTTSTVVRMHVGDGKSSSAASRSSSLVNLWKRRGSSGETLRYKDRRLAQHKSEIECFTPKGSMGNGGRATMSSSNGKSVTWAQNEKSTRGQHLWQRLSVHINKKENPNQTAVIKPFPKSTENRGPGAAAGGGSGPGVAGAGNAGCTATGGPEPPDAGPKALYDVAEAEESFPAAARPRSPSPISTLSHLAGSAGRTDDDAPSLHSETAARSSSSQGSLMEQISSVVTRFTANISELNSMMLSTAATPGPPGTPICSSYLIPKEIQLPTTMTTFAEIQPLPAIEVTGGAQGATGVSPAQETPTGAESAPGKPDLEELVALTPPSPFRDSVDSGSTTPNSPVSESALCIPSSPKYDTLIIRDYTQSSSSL

Legend:
rat mGlu3 = rat mGlu3 (Rattus norvegicus, UniProt P31422); settings: LLE (ligand-lipophilicity efficiency) = pIC50 – cLogP
rat mGlu5 = rat mGlu5 (Rattus norvegicus, UniProt P31424); experiment: Calcium mobilization mGlu5 assay; type: cell-based; settings: selectivity mGlu3 vs mGlu5

| SMILES | LLE (rat mGlu3) | fold vs mGlu5 (rat mGlu5) |
| --- | --- | --- |
| C[C@@H]1CN(c2ccc(F)cc2)C(=O)c2cc(COc3ccc(F)cc3)nn21 [Compound 24] | 2.38 | – |
| CCOc1ccc(OCc2cc3n(n2)[C@H](C)CN(c2ccc(F)cc2)C3=O)cc1 [Compound 38] | 1.70 | >25 fold |
| C[C@@H]1CN(c2ccc(F)cc2)C(=O)c2cc(COc3ccc(F)cn3)nn21 [Compound 47] | 3.21 | ~20 fold and >18 fold |
| C[C@@H]1CN(c2ccc(F)cc2)C(=O)c2cc(COc3ccc(Cl)cn3)nn21 [Compound 48] | 2.65 | – |
| C[C@@H]1CN(c2ccccc2F)C(=O)c2cc(COc3ccc(F)cn3)nn21 [Compound 55] | 3.73 | >61 fold |
| C[C@@H]1CN(c2cccc(F)c2)C(=O)c2cc(COc3ccc(F)cn3)nn21 [Compound 56] | 3.66 | – |
| C[C@@H]1CN(c2ccccc2Cl)C(=O)c2cc(COc3ccc(F)cn3)nn21 [Compound 57] | 3.28 | – |
| C[C@@H]1CN(c2cccc(Cl)c2)C(=O)c2cc(COc3ccc(F)cn3)nn21 [Compound 58] | 3.27 | – |
| Cc1cccc(N2C[C@@H](C)n3nc(COc4ccc(F)cn4)cc3C2=O)c1 [Compound 61] | 3.44 | – |
| C[C@@H]1CN(c2cccc(F)c2F)C(=O)c2cc(COc3ccc(F)cn3)nn21 [Compound 66] | 3.57 | – |
| C[C@@H]1CN(c2cc(F)ccc2F)C(=O)c2cc(COc3ccc(F)cn3)nn21 [Compound 67] | 3.75 | >81 fold |
| C[C@@H]1CN(c2c(F)cccc2F)C(=O)c2cc(COc3ccc(F)cn3)nn21 [Compound 68] | 3.58 | – |
| C[C@@H]1CN(c2ccccn2)C(=O)c2cc(COc3ccc(Cl)cn3)nn21 [Compound 100] | 3.91 | >91 fold |
| C[C@@H]1CN(c2cccnc2)C(=O)c2cc(COc3ccc(Cl)cn3)nn21 [Compound 101] | 4.06 | >49 fold |
| C[C@@H]1CN(c2cnccc2F)C(=O)c2cc(COc3ccc(Cl)cn3)nn21 [Compound 107] | 4.06 | >62 fold |
| C[C@@H]1CN(c2cncc(F)c2)C(=O)c2cc(COc3ccc(Cl)cn3)nn21 [Compound 108] | 4.06 | >62 fold |

Values joined by “and” are separate entries in the source; they are usually repeats but may differ in a detail not shown here. Identical values can stand only once.
